SMILES strings stand for the structures. pKi: −log10 of the molar value.

Protein sequences, listed by entry. Tags and fused reporters are not part of them. Residues count along the entry.
UniProt P06276, 29-602 limits assumed: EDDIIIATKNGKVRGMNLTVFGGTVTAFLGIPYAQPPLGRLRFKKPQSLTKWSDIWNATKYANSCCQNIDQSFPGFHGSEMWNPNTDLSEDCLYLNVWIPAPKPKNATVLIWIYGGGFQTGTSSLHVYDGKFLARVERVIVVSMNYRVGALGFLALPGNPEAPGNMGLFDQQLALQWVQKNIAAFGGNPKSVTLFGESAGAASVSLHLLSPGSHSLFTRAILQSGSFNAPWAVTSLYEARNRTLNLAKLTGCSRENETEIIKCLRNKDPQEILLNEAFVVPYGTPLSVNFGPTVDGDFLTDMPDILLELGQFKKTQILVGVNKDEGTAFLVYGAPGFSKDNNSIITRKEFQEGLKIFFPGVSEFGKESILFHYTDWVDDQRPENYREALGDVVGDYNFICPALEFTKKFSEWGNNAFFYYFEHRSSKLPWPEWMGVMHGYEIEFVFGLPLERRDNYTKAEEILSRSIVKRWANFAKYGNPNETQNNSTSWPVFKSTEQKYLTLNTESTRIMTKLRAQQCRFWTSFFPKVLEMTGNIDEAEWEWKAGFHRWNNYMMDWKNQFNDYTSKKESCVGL

The test deals with Cholinesterase (Homo sapiens, UniProt P06276). As to the kind of experiment: Reactivation of OP compound induced inhibition of BChE in human plasma using ATCh as substrate by Ellman's method.
Consider `NC(=O)c1cc[n+](CC=CC[n+]2ccc(C=NO)c(F)c2)cc1`, for which the pKi was 3.96.

`NC(=O)c1cc[n+](CCCC[n+]2cc(F)c(C=NO)c(F)c2)cc1` gave a negative-log Ki (pKi) of 3.55. As for `NC(=O)c1cc[n+](CC=CC[n+]2cc(F)c(C=NO)c(F)c2)cc1`, the figure is 3.61; as for `NC(=O)c1cc[n+](CCC[n+]2cc(F)c(C=NO)c(F)c2)cc1`, 3.55. As to `NC(=O)c1cc[n+](CCC[n+]2ccc(C=NO)c(F)c2)cc1`, the pKi was 3.32.

These data come from BindingDB's records for 35526478.
